# pIC50: −log10 of the molar value.
# The chains behind the UniProt entries cited, without tags or fusion partners.
# UniProt P04049, whole entry Y340E/Y341E: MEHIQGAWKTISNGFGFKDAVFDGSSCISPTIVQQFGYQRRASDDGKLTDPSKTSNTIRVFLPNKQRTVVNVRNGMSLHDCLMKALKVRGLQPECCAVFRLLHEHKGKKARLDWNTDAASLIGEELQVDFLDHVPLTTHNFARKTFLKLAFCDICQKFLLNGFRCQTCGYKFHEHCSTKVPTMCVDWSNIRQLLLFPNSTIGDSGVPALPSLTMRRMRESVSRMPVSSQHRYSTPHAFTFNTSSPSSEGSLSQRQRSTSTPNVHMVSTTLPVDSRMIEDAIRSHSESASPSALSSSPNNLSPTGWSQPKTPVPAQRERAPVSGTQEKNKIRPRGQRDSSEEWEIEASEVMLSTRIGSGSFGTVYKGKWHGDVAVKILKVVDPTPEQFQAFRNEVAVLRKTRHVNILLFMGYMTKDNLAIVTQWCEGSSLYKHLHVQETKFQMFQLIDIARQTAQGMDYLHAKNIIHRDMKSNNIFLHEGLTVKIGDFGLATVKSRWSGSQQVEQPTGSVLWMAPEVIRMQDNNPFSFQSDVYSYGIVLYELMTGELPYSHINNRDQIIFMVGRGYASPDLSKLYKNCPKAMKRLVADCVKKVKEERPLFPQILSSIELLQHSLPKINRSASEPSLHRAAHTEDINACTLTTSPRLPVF
# Target: C-Raf FL (full-length C-Raf protein, Y340E and Y341E activating mutations) (Homo sapiens (Human), UniProt P04049, Y340E/Y341E)
# Format: biochemical
# Details: AlphaScreen, 60 min pre-incubation, 1 hour reaction; read-out: c-Raf FL IC-50
row,pIC50,Structure (SMILES)
1,10.00,"Cc1ccc(NC(=O)c2cccc(C(F)F)c2)cc1-c1cc(N2CCOCC2)n(C)c(=O)c1 [Example 484, 3-(difluoromethyl)-N-(4-methyl-3-(1-methyl-6-morpholino-2-oxo-1,2-dihydropyridin-4-yl)phenyl)benzamide]"
2,9.52,"Cc1ccc(NC(=O)c2ccnc(C(F)F)c2)cc1-c1cc(N2CCOCC2)n(C)c(=O)c1 [Example 486, 2-(difluoromethyl)-N-(4-methyl-3-(1-methyl-6-morpholino-2-oxo-1,2-dihydropyridin-4-yl)phenyl)isonicotinamide]"
3,9.10,"Cc1ccc(NC(=O)c2ccnc(C(C)(C)C#N)c2)cc1-c1cc(N2CCOCC2)n(C)c(=O)c1 [Example 487, 2-(2-cyanopropan-2-yl)-N-(4-methyl-3-(1-methyl-6-morpholino-2-oxo-1,2-dihydropyridin-4-yl)phenyl)isonicotinamide]"
4,9.10,"Cc1ccc(NC(=O)c2cnnc(C(C)(C)C#N)c2)cc1-c1cc(N2CCOCC2)n(C)c(=O)c1 [Example 489, 6-(2-cyanopropan-2-yl)-N-(4-methyl-3-(1-methyl-6-morpholino-2-oxo-1,2-dihydropyridin-4-yl)phenyl)pyridazine-4-carboxamide]"
5,9.40,"CCN1CCN(c2cc(C(=O)Nc3ccc(C)c(-c4cc(N5CCOCC5)n(C)c(=O)c4)c3)cc(C(F)(F)F)c2)CC1 [Example 490, 3-(4-ethylpiperazin-1-yl)-N-(4-methyl-3-(1-methyl-6-morpholino-2-oxo-1,2-dihydropyridin-4-yl)phenyl)-5-(trifluoromethyl)benzamide]"
6,9.40,"Cc1ccc(NC(=O)c2cc(F)cc(N3CCOCC3)c2)cc1-c1cc(N2CCOCC2)n(C)c(=O)c1 [Example 491, 3-fluoro-N-(4-methyl-3-(1-methyl-6-morpholino-2-oxo-1,2-dihydropyridin-4-yl)phenyl)-5-morpholinobenzamide]"
7,9.10,"Cc1ccc(NC(=O)c2cccc(-c3nnco3)c2)cc1-c1cc(N2CCOCC2)n(C)c(=O)c1 [Example 493, N-(4-methyl-3-(1-methyl-6-morpholino-2-oxo-1,2-dihydropyridin-4-yl)phenyl)-3-(1,3,4-oxadiazol-2-yl)benzamide]"
8,8.43,"Cc1ccc(NC(=O)c2cccc(C(C)(C)S(C)(=O)=O)c2)cc1-c1cc(N2CCOCC2)n(C)c(=O)c1 [Example 494, N-(4-methyl-3-(1-methyl-6-morpholino-2-oxo-1,2-dihydropyridin-4-yl)phenyl)-3-(2-(methylsulfonyl)propan-2-yl)benzamide]"
9,9.00,"Cc1ccc(NC(=O)c2cnnc(C(F)(F)F)c2)cc1-c1cc(N2CCOCC2)n(C)c(=O)c1 [Example 495, N-(4-methyl-3-(1-methyl-6-morpholino-2-oxo-1,2-dihydropyridin-4-yl)phenyl)-6-(trifluoromethyl)pyridazine-4-carboxamide]"
10,9.70,"Cc1ccc(NC(=O)c2cnnc(C3CC3)c2)cc1-c1cc(N2CCOCC2)n(C)c(=O)c1 [Example 496, 6-cyclopropyl-N-(4-methyl-3-(1-methyl-6-morpholino-2-oxo-1,2-dihydropyridin-4-yl)phenyl)pyridazine-4-carboxamide]"
11,9.30,"Cc1ccc(NC(=O)c2cc(CN(C)C)cc(C(F)(F)F)c2)cc1-c1cc(N2CCOCC2)n(C)c(=O)c1 [Example 497, 3-((dimethylamino)methyl)-N-(4-methyl-3-(1-methyl-6-morpholino-2-oxo-1,2-dihydropyridin-4-yl)phenyl)-5-(trifluoromethyl)benzamide]"
12,8.46,"Cc1ncc(NC(=O)c2ccnc(C(C)(C)C#N)c2)cc1-c1cc(N2CCOCC2)n(C)c(=O)c1 [Example 499, 2-(2-cyanopropan-2-yl)-N-(1′,2-dimethyl-6′-morpholino-6′-oxo-1′,2′-dihydro-[3,4′-bipyridin]-5-yl)isonicotinamide]"
13,8.89,Cc1ncc(NC(=O)c2ccnc(C(F)(F)F)c2)cc1-c1cc(N2CCOCC2)n(C)c(=O)c1 [Example 500]
14,8.08,"Cc1ncc(NC(=O)c2ccnc(C(C)(C)O)c2)cc1-c1cc(N2CCOCC2)n(C)c(=O)c1 [Example 501, N-(1′,2-dimethyl-6′-morpholino-2′-oxo-1′,2′-dihydro-[3,4′-bipyridin]-5-yl)-2-(2-hydroxypropan-2-yl)isonicotinamide]"
15,8.27,"CCn1cc(C(=O)Nc2cnc(C)c(-c3cc(N4CCOCC4)n(C)c(=O)c3)c2)cc(C(F)(F)F)c1=O [Example 502, N-(1′,2-dimethyl-6′-morpholino-2′-oxo-1′,2′-dihydro-[3,4′-bipyridin]-5-yl)-1-ethyl-6-oxo-5-(trifluoromethyl)-1,6-dihydropyridine-3-carboxamide]"
16,7.20,"Cc1ncc(NC(=O)c2ccccc2)cc1-c1cc(N2CCOCC2)n(C)c(=O)c1 [Example 503, N-(1′,2-dimethyl-6′-morpholino-2′-oxo-1′,2′-dihydro-[3,4′-bipyridin]-5-yl)benzamide]"
17,8.28,"Cc1ncc(NC(=O)c2ccnc(S(C)(=O)=O)c2)cc1-c1cc(N2CCOCC2)n(C)c(=O)c1 [Example 504, N-(1′,2-dimethyl-6′-morpholino-2′-oxo-1′,2′-dihydro-[3,4′-bipyridin]-5-yl)-2-(methylsulfonyl)isonicotinamide]"

row,pIC50,Structure (SMILES)
1,8.85,"Cc1ncc(NC(=O)c2ccnc(C(C)C)c2)cc1-c1cc(N2CCOCC2)n(C)c(=O)c1 [Example 505, N-(1′,2-dimethyl-6′-morpholino-2′-oxo-1′,2′-dihydro-[3,4′-bipyridin]-5-yl)-2-isopropylisonicotinamide]"
2,8.38,"Cc1ncc(NC(=O)c2ccnc(C(C)(C)C)c2)cc1-c1cc(N2CCOCC2)n(C)c(=O)c1 [Example 507, 2-(tert-butyl)-N-(1′,2-dimethyl-6′-morpholino-2′-oxo-1′,2′-dihydro-[3,4′-bipyridin]-5-yl)isonicotinamide]"
3,8.57,"Cc1ncc(NC(=O)c2ccnc(C(F)F)c2)cc1-c1cc(N2CCOCC2)n(C)c(=O)c1 [Example 508, 2-(difluoromethyl)-N-(1′,2-dimethyl-6′-morpholino-2′-oxo-1′,2′-dihydro-[3,4′-bipyridin]-5-yl)isonicotinamide]"
4,8.42,"Cc1ncc(NC(=O)c2cccc(S(C)(=O)=O)c2)cc1-c1cc(N2CCOCC2)n(C)c(=O)c1 [Example 509, N-(1′,2-dimethyl-6′-morpholino-2′-oxo-1′,2′-dihydro-[3,4′-bipyridin]-5-yl)-3-(methylsulfonyl)benzamide]"
5,8.85,"Cc1ncc(NC(=O)c2ccnc(C(C)(F)F)c2)cc1-c1cc(N2CCOCC2)n(C)c(=O)c1 [Example 510, 2-(1,1-difluoroethyl)-N-(1′,2-dimethyl-6′-morpholino-2′-oxo-1′,2′-dihydro-[3,4′-bipyridin]-5-yl)isonicotinamide]"
6,8.89,"Cc1ncc(NC(=O)c2ccnc(C3CC3)c2)cc1-c1cc(N2CCOCC2)n(C)c(=O)c1 [Example 511, 2-cyclopropyl-N-(1′,2-dimethyl-6′-morpholino-2′-oxo-1′,2′-dihydro-[3,4′-bipyridin]-5-yl)isonicotinamide]"
7,7.81,"Cc1ncc(NC(=O)c2cccc(C(C)(C)S(C)(=O)=O)c2)cc1-c1cc(N2CCOCC2)n(C)c(=O)c1 [Example 512, N-(1′,2-dimethyl-6′-morpholino-2′-oxo-1′,2′-dihydro-[3,4′-bipyridin]-5-yl)-3-(2-(methylsulfonyl)propan-2-yl)benzamide]"
8,9.15,"Cn1c(N2CCOCC2)cc(-c2cc(NC(=O)c3ccnc(C(C)(F)F)c3)cnc2Cl)cc1=O [Example 513, N-(2-chloro-1′-methyl-6′-morpholino-2′-oxo-1′,2′-dihydro-[3,4′-bipyridin]-5-yl)-2-(1,1-difluoroethyl)isonicotinamide]"
9,8.96,"Cc1ccc(C(=O)Nc2cccc(C(C)(C)C#N)c2)cc1-c1cc(N2CCOCC2)n(C)c(=O)c1 [Example 515, N-(3-(2-cyanopropan-2-yl)phenyl)-4-methyl-3-(1-methyl-6-morpholino-2-oxo-1,2-dihydropyridin-4-yl)benzamide]"
10,8.19,"Cc1ccc(C(=O)Nc2cccc(C(C)(C)O)c2)cc1-c1cc(N2CCOCC2)n(C)c(=O)c1 [Example 516, N-(3-(2-hydroxypropan-2-yl)phenyl)-4-methyl-3-(1-methyl-6-morpholino-2-oxo-1,2-dihydropyridin-4-yl)benzamide]"
11,7.43,"Cc1ccc(C(=O)Nc2ccccc2)cc1-c1cc(N2CCOCC2)n(C)c(=O)c1 [Example 518, 4-methyl-3-(1-methyl-6-morpholino-2-oxo-1,2-dihydropyridin-4-yl)-N-phenylbenzamide]"
12,10.00,"CCn1c(N2CCOCC2)cc(-c2cc(NC(=O)c3ccnc(C(C)(F)F)c3)ccc2C)cc1=O [Example 519, 2-(1,1-difluoroethyl)-N-(3-(1-ethyl-6-morpholino-2-oxo-1,2-dihydropyridin-4-yl)-4-methylphenyl)isonicotinamide]"
13,9.30,"CCn1c(N2CCOCC2)cc(-c2cc(NC(=O)c3ccnc(C(F)(F)CC)c3)ccc2C)cc1=O [Example 520, 2-(1,1-difluoropropyl)-N-(3-(1-ethyl-6-morpholino-2-oxo-1,2-dihydropyridin-4-yl)-4-methylphenyl)isonicotinamide]"
14,9.22,"CCn1c(N2CCOCC2)cc(-c2cc(NC(=O)c3ccnc(C(C)C)c3)ccc2C)cc1=O [Example 522, N-(3-(1-ethyl-6-morpholino-2-oxo-1,2-dihydropyridin-4-yl)-4-methylphenyl)-2-isopropylisonicotinamide]"
15,9.10,"Cc1ccc(NC(=O)c2ccnc(C(C)(F)F)c2)cc1-c1cc(N2CCOC[C@H]2C)n(C)c(=O)c1 [Example 523, (R)-2-(1,1-difluoroethyl)-N-(4-methyl-3-(1-methyl-6-(3-methylmorpholino)-2-oxo-1,2-dihydropyridin-4-yl)phenyl)isonicotinamide]"
16,7.87,"Cc1ncc(NC(=O)c2ccnc(C(C)(F)F)c2)cc1-c1cc(N2CCOC[C@H]2C)n(C)c(=O)c1 [Example 524, (R)-2-(1,1-difluoroethyl)-N-(1′,2-dimethyl-6′-(3-methylmorpholino)-2′-oxo-1′,2′-dihydro-[3,4′-bipyridin]-5-yl)isonicotinamide]"

# Source: US9694016B2 (Novartis AG, priority 2013, dated 2017)
